Activity change data for 62 compounds are collected here from PubChem BioAssay AID720553 (National Center for Advancing Translational Sciences (NCATS), 2013).

The entries are a selection whose mix differs from that of the whole data set. Some structures show a salt or complex split into parts, the way the source records it. Activity calls are given as the source filed them.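 How the source made its calls: active means maximum activity change below -70%; inconclusive means maximum activity change from -70% to -50%; inactive means maximum activity change above -50%.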
On the % scale 0 is the no-effect control and ±100 the full control effect.

This test relates to Potassium voltage-gated channel subfamily H member 2, brain isoform KCNH2 3.1 (human). As to the kind of experiment: qHTS for Inhibitors of KCHN2 3.1: Mutant qHTS. The settings on record: U2OS KCNH2 3.1, thallium flux FluxOr; stronger effect = lower value. From the text: Many antipsychotic drugs that inhibit the neurotransmitter dopamine also bind to hERG1 channel which might help explain their antipsychotic activity but also produces cardiac side effects. The discovery of the novel KCNH2 3.1 isoform offers a potential new target for the development of antipsychotic drugs without cardiac side effects. This proposal will use a high throughput thallium flux assay developed for KCNH2 to screen compounds that modulate the activity of KCNH2 3.1. The wild type KCNH2 channel will also be screened in parallel to help define the selective modulators of this KCNH2 3.1 potassium channel. The resulting compounds will be validated in electrophysiology experiments. The availability of animal models will allow future testing in vivo for effects on memory and other aspects of animal physiology linked with psychosis. NIH Chemical Genomics Center [NCGC] NIH Molecular Libraries Probe Centers Network [MLPCN] MLPCN Grant: MH096539 Assay Submitter (PI): James Barrow, Johns Hopkins University, Lieber Institute for Brain Development
U2OS cells were resuspended in cell media containing 10% fetal calf serum (FCS) at a concentration of 2 million cells / mL. The solution was treated with the mutant (3.1) virus at 1.77 x 10^8 / mL and allowed to incubate at room temperature in the dark. After 4 hours of incubation, DMEM + 10% fetal bovine serum (FBS) was added to the cell solution. Three microliter was then dispensed into a 1536 tissue culture treated black assay plates which were incubated overnight at 37 C. Two microliter of loading buffer (HBSS + HEPES + Red40 dye quencher + FluxOr dye) was added and the assay plates were incubated for 45 min at room temperature in the dark. […] A stimulation buffer was added to the plate and the second kinetic read (2 min) was obtained. The rate constant was calculated from the kinetic reads and normalized to the positive and negative DMSO controls.
On the technique in general: In qHTS, concentration-response curves come from the screen itself.
In the case of `COc1ccc(Cl)cc1C(=O)NCC1(N2CCOCC2)CCCCC1`, the activity change was inactive: -7.6%.
With `O=C1C(O)=C([N+](=O)[O-])C(=O)C(O)=C1[N+](=O)[O-]`, the activity change is inactive: 10.4%.
On to `O=C(NCC1(N2CCCCC2)CCCCC1)c1ccc(Cl)s1`, for which the activity change is inactive: 0.58%.
The result for `N#CC1(Nc2ccccc2)CCN(Cc2ccccc2)CC1` reads inactive: 10.8%.
The result for `O=C(OC1CN2CCC1CC2)C1c2ccccc2Oc2ccccc21` (configuration not stated) reads inactive: 0.519%.
In the case of `CCOC(=O)N1CCC(Nc2ccc(OC)cc2)CC1` it was inactive: 6.31%.
For the compound `Cc1cc(C)cc(N(C(=O)c2ccccc2)C2CCN(C(=O)OC(C)(C)C)CC2)c1`, the activity change is inactive: -10.5%.
The result for `O=C(NCC1(N2CCCCC2)CCCCC1)c1ccc(Cl)nc1` reads inactive: 12.4%; that for `O=C(NCC1(N2CCOCC2)CCCCC1)c1cc2ccccc2o1`, inactive: 9.32%; that for `Cc1cccc(NC2(C#N)CCN(Cc3ccccc3)CC2)c1`, inactive: -0.514%.
As for `CSc1ccccc1C(=O)NCC1(N2CCCCC2)CCCCC1`, the activity change was inactive: -0.0758%.
In the case of `COc1ccc(C(=O)NCC2(N3CCCCC3)CCCCC2)c(OC)c1OC` it was inactive: -41.9%.
In the case of `CC(C)(C)OC(=O)N1CCC(N(C(=O)c2ccccc2)c2ccc(F)cc2)CC1` it was inactive: -4%; in that of `COc1ccc(C(=O)NCC2(N3CCCCC3)CCCCC2)cc1`, inactive: 0.894%.
Regarding `O=C(NCC1(N2CCCCC2)CCCCC1)c1cccs1`, the activity change is inactive: 5.66%.
For `O=C(NCC1(N2CCCCC2)CCCCC1)c1ccc(=O)[nH]c1`, the activity change was inactive: -2.92%.
As to `CCOC(=O)N1CCC(Nc2cccc(C)c2)CC1`, the activity change is inactive: -3.22%.
`COc1cc(C(=O)NCC2(N(C)C)CCCCC2)ccc1OC(F)F`: the activity change is inactive: -23.4%.
The result for `COc1ccc(NC2CCN(CCc3ccccc3)CC2)c(OC)c1` reads inactive: -1.72%; that for `CCOC(=O)N1CCC(Nc2ccc(F)cc2)CC1`, inactive: 1.15%.
In the case of `O=P1(N(CCCl)CCCl)SCCCS1` it was inactive: 19%; in that of `CCCCOc1ccc(C(=O)NCC2(N3CCOCC3)CCCCC2)cc1`, inactive: -36%; in that of `O=C(NCC1(N2CCCCC2)CCCCC1)c1ccc(F)cc1`, inactive: 0.588%.
On to `O=C1CCN(Cc2ccccc2)CC1`, for which the activity change is inactive: 0.237%.
In the case of `CCOc1ccc(C)cc1CN(CCCl)CCCl`, the activity change is inactive: -16.5%.
In the case of `COc1cc(C(=O)NCC2(N3CCCCC3)CCCCC2)ccc1OC(F)F` it was inactive: -45.3%; in that of `O=C(NCC1(N2CCOCC2)CCCCC1)c1cc(=O)[nH]c2ccccc12`, inactive: 1.87%; in that of `CN1CCN(CCOC(=O)C(O)(c2ccccc2)c2ccccc2)CC1`, inactive: 1.32%.
The result for `COc1ccc(NC2CCN(C(=O)OC(C)(C)C)CC2)cc1` reads inactive: -1.43%; that for `CC(C)c1ccc(C(=O)NCC2(N3CCOCC3)CCCCC2)cc1`, inactive: -6.33%.
Consider `O=[N+]([O-])c1cc([N+](=O)[O-])c(NCC2CCS(=O)(=O)C2)c([N+](=O)[O-])c1` (configuration not stated), for which the activity change is inactive: -2.19%.
Regarding `O=C(NCC1(N2CCCCC2)CCCCC1)c1cccc(C(F)(F)F)c1`, the activity change was inactive: -7.74%.
Regarding `N#CC1(Nc2ccccc2)CCN(CCc2ccccc2)CC1`, the activity change is inactive: -2.44%.
As to `CCN1CCC(Nc2ccc(Cl)cc2)CC1`, the activity change was inactive: 1.49%.
In the case of `O=C(NCC1(N2CCCCC2)CCCCC1)c1cccc([N+](=O)[O-])c1` it was inactive: 8.37%; in that of `CSc1ccc(C(=O)NCC2(N3CCOCC3)CCCCC2)cc1`, inactive: -12.3%; in that of `O=[N+]([O-])c1cc([N+](=O)[O-])c(Nc2ccc(Cl)cc2)c([N+](=O)[O-])c1`, inactive: -11.1%.
In the case of `CCCOc1ccc(C(=O)NCC2(N(C)C)CCCCC2)cc1OC` it was inactive: -1.09%; in that of `Cc1ccc(C(=O)NCC2(N(C)C)CCCCC2)o1`, inactive: 11.5%.
The result for `O=C(OC1CN2CCC1CC2)c1ccc([N+](=O)[O-])cc1` (configuration not stated) reads inactive: -6.16%; that for `CN1CCC(Nc2cccc(F)c2)CC1`, inactive: 19.2%; that for `O=C(NCC1(N2CCCCC2)CCCCC1)c1cncc(Br)c1`, inactive: 0.247%.
As for `COc1ccc2c(c1O)-c1c(O)c(OC)cc3c1[C@H](C2)[N+](C)(C)CC3.O=[N+]([O-])c1cc([N+](=O)[O-])c([O-])c([N+](=O)[O-])c1[O-]`, the activity change is inactive: 3.86%.
In the case of `O=C(NCC1(N2CCOCC2)CCCCC1)c1cc(F)c(F)cc1Cl` it was inactive: -40.6%.
In the case of `COc1cc(OC)c(C(=O)NCC2(N(C)C)CCCCC2)cc1OC` it was inactive: 20.6%; in that of `CC(C)c1ccc(NC2CCN(C(=O)OC(C)(C)C)CC2)cc1`, inactive: 27.6%; in that of `O=[N+]([O-])c1cc([N+](=O)[O-])c(OC2CCCCC2O)c([N+](=O)[O-])c1` (configuration not stated), inactive: -0.0625%.
In the case of `CN(C)c1cccc(C(=O)NCC2(N3CCCCC3)CCCCC2)c1` it was inactive: -11.4%; in that of `COc1ccc(CN(CCCl)CCCl)cc1Cl`, inactive: -24.3%; in that of `O=C(O)c1cccc(Nc2c([N+](=O)[O-])cc([N+](=O)[O-])cc2[N+](=O)[O-])c1`, inactive: 0.842%.
On to `CCc1cc(C(=O)NCC2(N3CCCCC3)CCCCC2)sc1C`, for which the activity change was inactive: -26.7%.
The result for `O=C(OC1CN2CCC1CC2)C1c2ccccc2C=Cc2ccccc21` (configuration not stated) reads inactive: -5.01%.
For `CCOC(=O)N1CCC(Nc2ccc(C)cc2)CC1`, the activity change is inactive: 1.19%.
Regarding `N/C(=N\O)c1c(N)no[n+]1[O-]`, the activity change was inactive: -2.12%.
The result for `COc1ccc(C(=O)NCC2(N3CCOCC3)CCCCC2)cc1OC` reads inactive: 14.1%; that for `COc1cc(C(=O)NCC2(N3CCOCC3)CCCCC2)cc(OC)c1C`, inactive: -18.1%; that for `O=C(NCC1(N2CCOCC2)CCCCC1)c1cc(Br)ccc1Cl`, inactive: 5.06%.
With `CN(C)C1(CNC(=O)c2cccc(C#N)c2)CCCCC1`, the activity change is inactive: 25.8%.
As to `CCCN1CCC(Nc2cc(OC)cc(OC)c2)CC1`, the activity change was inactive: -29.9%.
The result for `c1ccc(CN2CCC(Nc3ccccc3)CC2)cc1` reads inactive: -7.42%; that for `CCOC(=O)C(CC)C1=NC(C)(C)Cc2ccccc21.O=[N+]([O-])c1cc([N+](=O)[O-])c(O)c([N+](=O)[O-])c1` (configuration not stated), inactive: 5.45%.
As to `N#Cc1ccc(C(=O)NCC2(N3CCCCC3)CCCCC2)cc1`, the activity change is inactive: -0.619%.
